Reference: patent publication US5980913A, “Peptides having immunomodulatory activity” (Biochem Pharma, Inc., priority 1994, dated 1999)

System: NK cells
Test: Functional in vivo/ex vivo NK cell assay, spleen cells, effector:target ratio 100:1
Parameters: species or system mice
Conditions: IL-2 group
Experimental: C57BL.backslash.6 mice are treated with 0, 50, 100, 200, and 300 mg/kg of drug (in saline) for 4 consecutive days. Blood is taken by cardiac puncture on day 5, and the lymphocytes are isolated from spleen in the following manner:
The spleen is aseptically removed and mashed by pressing against a steel strainer with a rubber plunger. The cell suspension is separated from the clumps by letting them settle at the bottom of the tube. The cell suspension is then separated on a Lymphocyte M layer and the interface is recovered and resuspended in media.
Important in immunosurveillance, NK cells are capable of lysing tumors, virus-infected or embryo-derived cells in vitro spontaneously without prior sensitization. Immunomodulators are evaluated using murine splenocytes and human peripheral blood mononuclear leukocytes.
Spleen cells were used to test for NK activity at a effector:target ratio of 100:1.

IL-2: IL-2, reference set to 100% in the CTL assay and comparison group in the NK cell assay
NK cell assay, % response of IL-2: 100.00% | NK cell assay, Average: 5.22 | NK cell assay, % response of CTL (CTL = control): 233.04%
